scFv variants of Ab-14 (heavy chain) against a SARS-CoV-2 spike peptide

Antigen: PDVDLGDISGINAS, a 14-residue peptide of the SARS-CoV-2 spike HR2 region.

Parent: Ab-14, a human scFv built as VH, three GGGGS repeats, VL. Only the CDRs of the heavy chain vary.
VH: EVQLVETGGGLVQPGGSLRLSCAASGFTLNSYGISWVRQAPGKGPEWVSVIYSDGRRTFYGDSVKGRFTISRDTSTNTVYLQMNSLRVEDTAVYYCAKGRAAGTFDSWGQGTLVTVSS
VL: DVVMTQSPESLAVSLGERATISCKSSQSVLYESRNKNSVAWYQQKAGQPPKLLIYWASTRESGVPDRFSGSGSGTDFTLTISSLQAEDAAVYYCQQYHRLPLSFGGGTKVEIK

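The parent was found by panning a naive human phage display library on the peptide. These sequences belong to a second round, designed from the earlier measurements on random variants of the parent. Group labels follow the data file (Ctrl: baseline library sampled from a position-specific scoring matrix, with some repeated check sequences; Rand: our label for a block that the file lists under HC and that is probably the random mutants of the ten best first-round binders; En: ensemble of fine-tuned language models; GP: Gaussian process model; GPLM: also part of the Gaussian process libraries; HC: hill climbing; Gen: genetic algorithm; Gibbs: Gibbs sampling; a sequence that several methods proposed may carry one label only). The assay is AlphaSeq: two haploid yeast populations carry antibody and antigen on their surface. Pairs that bind mate more often; barcode pairs of the diploids are counted by sequencing. Read counts were normalised to the haploid input and turned into Kd by a linear fit to BCL2-family pairs of known affinity, for each replicate. Mating was done six times.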

Variants are written as CDR1, CDR2 and CDR3 of the heavy chain (limits as in the source). Parent: GFTLNSYGIS, VIYSDGRRTFYGDSVK, GRAAGTFDS.
Scale: log10 of Kd in nM, estimated from mating counts; low values are strong binders.
Replicates are averaged; those with no signal do not enter the mean.
"n.d." marks a missing value. The strain was present, yet no cells mated with the target were sequenced in that replicate, which points to weak or no binding.

CDR-H1,CDR-H2,CDR-H3,group,"log10 Kd, replicates","mean, log10 nM",empty controls
GFTLESYGIS,VIYADGRRTFYGDWVK,GRAAGTFKS,GP_HC,n.d. n.d. n.d. n.d. n.d. n.d.,n.d.,0 of 18
GFDLEDYGIS,VIYADGMRTAYTDSVK,GEVAGTFDV,En_Gen,-0.57 0.11 -0.42 -0.40 0.15 -0.24,-0.23,0 of 18
GFDLNEYGIS,VIYADGVRTAYSDSVK,GETAGTFDT,En_Gen,-0.40 -0.87 -1.43 -1.48 -0.67 -1.54,-1.07,0 of 18
GFTLNGYGIS,VIYSDGRRTQYIDSVK,GRAAGTFDS,Rand,2.61 1.58 1.51 1.37 1.52 2.31,1.82,0 of 18
GFTLNSYGIS,VIYSDGRRTHYGDSVK,GRAADTFDS,Ctrl,n.d. n.d. n.d. n.d. n.d. n.d.,n.d.,0 of 18
GFDLNEYGIS,VIYADGRRTFYKDSVK,GNAGGTFDV,En_HC,-0.04 -0.59 0.04 0.12 -0.39 0.02,-0.14,0 of 18
GMNLDEYGIS,VIYADGLRTEYANTVK,GEMAGFFML,En_Gibbs,n.d. n.d. n.d. n.d. n.d. n.d.,n.d.,0 of 18
FFKLEDYGIS,VIYADGKRKAYVDNVK,GEIAGTFDV,En_Gibbs,0.19 0.24 -0.61 0.49 1.47 -0.33,0.24,0 of 18
GFTLNSYGIS,VIYSDGERTAYGDSVK,GKAASTFDS,Ctrl,n.d. n.d. n.d. n.d. n.d. n.d.,n.d.,0 of 18
GATLRSYSIS,VIYSDGRRTFYGDSVK,GRAAGTIDS,Ctrl,n.d. n.d. n.d. n.d. n.d. n.d.,n.d.,0 of 18
GFTLNSYGIS,VIYSDGRRTFYIDSVK,GQLAGTFDD,GP_HC,n.d. n.d. n.d. n.d. n.d. n.d.,n.d.,0 of 18
GFTLNSYGIS,VIYSDGRRTFYMDSVK,GQLAGTFDS,GPLM_HC,n.d. n.d. 0.59 2.20 0.29 0.76,0.96,1 of 18 (0.33)
GFDLEDYGIS,VIYADGRRTFYADSVK,GKVAGTFDV,En_HC,-0.74 -0.98 -0.92 -1.21 -0.92 -0.89,-0.94,0 of 18
GFSLNSYGIS,VIYSDGKRTFYGDSVK,GRNAGTFDS,GPLM_Gibbs,0.81 0.43 0.22 0.32 0.59 0.59,0.50,0 of 18
GFTLNEYGIS,VIYSDGRRTFYADSVK,GRHAGTFDS,GPLM_Gen,0.14 0.41 0.04 0.39 -0.03 0.16,0.18,0 of 18
GFSLNAYGIS,VIYSDGRRTFYGDSVK,GEAAGTFDS,GPLM_Gen,0.40 0.57 0.27 0.32 0.13 0.30,0.33,1 of 18 (3.34)
GFTLNSYGIS,VIYSDGRRTFYGDSVK,GKAAGTFDS,Ctrl,n.d. 1.07 2.30 2.22 1.73 2.34,1.93,0 of 18

Second part, the sequence after the result:

"log10 Kd, replicates","mean, log10 nM",empty controls,CDR-H1,CDR-H2,CDR-H3,group
n.d. n.d. 1.82 n.d. n.d. n.d.,1.82,1 of 18 (2.90),GFKLEAYGIS,VIYADGQRAAYVDKVK,GQHAGMFDQ,En_Gibbs
-0.17 -0.35 -0.18 -0.69 -0.42 -0.15,-0.33,0 of 18,GFDLNEYGIS,VIYADGRRTAYADSVK,GTVAGTFNV,En_HC
2.39 1.32 n.d. n.d. n.d. n.d.,1.85,0 of 18,GFDLNEYGIS,VIYADGMRTVYADDVK,GNQAGTFDV,En_Gen
-0.08 1.15 -0.43 -0.42 -0.55 -0.27,-0.10,0 of 18,GFDLNEYGIS,VIYADGRRTFYSDSVK,GEAAGTFVL,En_HC
0.94 1.25 0.34 1.22 0.38 2.72,1.14,0 of 18,YFSLNDYGIS,VIYSDGRRTFYGDSVK,GRTAGTFDT,GP_Gibbs
0.13 -0.28 0.39 -0.31 -0.15 0.40,0.03,0 of 18,GFDLNEYGIS,VIYADGVRTFYADSVK,GSEAGTFDM,En_HC
n.d. n.d. n.d. n.d. n.d. n.d.,n.d.,0 of 18,GNDLDEFGIS,VIYADGSRASYIDKVK,GLNGGQLIV,En_Gibbs
n.d. n.d. n.d. n.d. n.d. n.d.,n.d.,0 of 18,GFTLNSYGIS,VIYSDGRRTFYQDSVK,GQVAGKFDS,GP_HC
1.02 0.80 0.96 0.94 1.31 1.13,1.03,0 of 18,GFTLNSYGIS,VIYSDGRRTAYGDSVK,GQAAGTFDS,GPLM_Gibbs
n.d. n.d. n.d. n.d. -0.36 n.d.,-0.36,0 of 18,GFDLNEYGIS,VIYADGMRKAYADSVK,GEVAGTFDT,En_Gen
n.d. 2.35 1.29 2.46 3.28 n.d.,2.35,0 of 18,GFTLNDYGIS,VIYSDGRRTFYSDSVK,GREAGTFFS,GP_HC
n.d. n.d. n.d. n.d. n.d. n.d.,n.d.,0 of 18,GFTLNSYGIS,VIYSDGRRTFYGDSVK,GRPAGTFES,Ctrl
1.47 0.43 0.93 0.79 0.07 1.48,0.86,0 of 18,GFELNSYGIS,VIYSDGRRTFYSDSVK,GKAAGTFDS,GPLM_Gen
0.53 0.11 0.01 0.22 0.36 0.27,0.25,1 of 18 (2.09),GFSLNSYGIS,VIYSDGRRTFYDDSVK,GAAAGTFDS,GPLM_Gen
n.d. n.d. n.d. n.d. 1.62 n.d.,1.62,0 of 18,AFELNDYGIS,VIYSDGRRTFYGDSVK,GRAALTFIS,Rand
0.96 1.37 0.59 0.45 0.71 0.61,0.78,1 of 18 (2.57),GFQLNEYGIS,VIYSDGRRTFYSDQVK,GQAAGTFDS,GP_Gibbs
n.d. n.d. n.d. n.d. n.d. n.d.,n.d.,0 of 18,EFDLMEYGVS,VIYADGHRTFYAEHVK,GTNSGVFDI,En_Gibbs
1.35 0.91 0.33 0.79 1.53 1.15,1.01,0 of 18,GFLLNSYGIS,VIYSDGRRTFYDDSVK,GQLAGTFDS,GPLM_HC

5 of these entries, quoted again:

| CDR-H1 | CDR-H2 | CDR-H3 | group | log10 Kd, replicates | mean, log10 nM | empty controls |
|---|---|---|---|---|---|---|
| GFSLNSYGIS | VIYSDGRRTFYDDSVK | GAAAGTFDS | GPLM_Gen | 0.53 0.11 0.01 0.22 0.36 0.27 | 0.25 | 1 of 18 (2.09) |
| GFDLNEYGIS | VIYADGVRTAYSDSVK | GETAGTFDT | En_Gen | -0.40 -0.87 -1.43 -1.48 -0.67 -1.54 | -1.07 | 0 of 18 |
| GFQLNEYGIS | VIYSDGRRTFYSDQVK | GQAAGTFDS | GP_Gibbs | 0.96 1.37 0.59 0.45 0.71 0.61 | 0.78 | 1 of 18 (2.57) |
| FFKLEDYGIS | VIYADGKRKAYVDNVK | GEIAGTFDV | En_Gibbs | 0.19 0.24 -0.61 0.49 1.47 -0.33 | 0.24 | 0 of 18 |
| GFDLNEYGIS | VIYADGRRTAYADSVK | GTVAGTFNV | En_HC | -0.17 -0.35 -0.18 -0.69 -0.42 -0.15 | -0.33 | 0 of 18 |

The range of this assay differs from that of the first round, and the authors advise against merging the two.
The authors averaged sequences with at least three values out of six and counted those with two or fewer as poor binders.
Empty control strains, which show no peptide, gave a signal in 1% of pairings with all heavy chain designs; the median was 2.08 and 95% of these signals were weaker than 0.84. No background was subtracted. Also given: how often the same scFv was detected with the empty control strains, with their mean in brackets.

Data: MIT Lincoln Laboratory AlphaSeq set, Li et al. 2023, doi:10.1038/s41467-023-39022-2, as distributed in FLAb.